Laboratory results taken from PubChem BioAssay AID1346428 (National Center for Advancing Translational Sciences (NCATS), 2018).
Where “and” joins values, the source holds several entries; their conditions need not be identical. Equal values may be shown once. Only a part is listed here, and it is no random draw. Calls of active or inactive are those of the source.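 How the source made its calls: active means activation of at least 60% and not above a set upper limit (about 1 call in 100 departs from these limits); inconclusive means activation of 40% to 60%, or above that upper limit; inactive means activation under 40%.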
Further: 0% is about no effect.

Sequences of proteins named here, by UniProt entry; tags and fusion partners are left off. A change or cut given only in a name is not applied to a line headed by its entry.
UniProt O75388: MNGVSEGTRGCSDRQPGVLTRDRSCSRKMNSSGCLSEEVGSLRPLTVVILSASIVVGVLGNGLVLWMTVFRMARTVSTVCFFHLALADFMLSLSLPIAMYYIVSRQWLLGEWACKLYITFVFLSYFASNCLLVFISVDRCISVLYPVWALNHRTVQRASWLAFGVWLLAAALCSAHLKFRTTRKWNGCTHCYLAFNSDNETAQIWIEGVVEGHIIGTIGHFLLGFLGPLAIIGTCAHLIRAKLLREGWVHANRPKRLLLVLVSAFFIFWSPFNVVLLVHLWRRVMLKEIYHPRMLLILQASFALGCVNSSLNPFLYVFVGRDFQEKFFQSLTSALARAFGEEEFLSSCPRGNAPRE

The compounds below were run against Probable G-protein coupled receptor 32 (Homo sapiens) (UniProt O75388) (assay: qHTS for Agonists of Human Resolvin D1 Receptor DRV1). Settings: CHO-K1 GPR32 beta-arrestin PathHunter luminescence, 90 min; at 76.9 µM; hits give high values; zero percent set by DMSO-only wells.
In the case of `CCNC(C)Cc1ccc2c(c1)OCO2` (stereo not given), the activation was inactive: 5.81%. For `CN(C(=O)Cc1ccc(Cl)c(Cl)c1)[C@H]1CCCC[C@@H]1N1CCCC1`, the activation was inactive: -9.25% and inactive: -9.14%. In the case of `Cc1cc([N+](=O)[O-])cc([N+](=O)[O-])c1O`, the activation was inactive: -92%. `CN(C(=O)Cc1ccccc1)[C@H]1CC[C@@]2(CCCO2)C[C@@H]1N1CCCC1` was tested, and the activation was inactive: -29.6%. `CN(C(=O)Cc1ccc(Cl)c(Cl)c1)[C@@H]1CCCC[C@@H]1N1CCCC1` was tested, and the activation was inactive: -2.77%. `CN(C(=O)Cc1ccc(Cl)c(Cl)c1)[C@@H]1CC[C@]2(CCCO2)C[C@H]1N1CCCC1` was tested, and the activation was inactive: -13.6%. For `CN(C(=O)Cc1ccc(Cl)c(Cl)c1)[C@H]1CC[C@@]2(CCCO2)C[C@@H]1N1CCCC1`, the activation was inactive: -1.05%. In the case of `CN(C(=O)Cc1ccccc1)[C@@H]1CC[C@]2(CCCO2)C[C@H]1N1CCCC1`, the activation was inactive: -4.53%. For `NC(=O)Nc1ccc([As](=O)(O)O)cc1`, the activation was inactive: -6.13%. `CN(CCCl)Cc1cc(Cl)c(NC2=NCCN2)c(Cl)c1` was tested, and the activation was inactive: 3.41%.
